Measured values as given in patent US20110224276A1, “OPTICAL ISOMER OF PHENYLPROPIONIC ACID AND ITS MEDICINAL USE” (priority 2008, published 2011).

Experiments:
SD rats [1] = assay: toxicity test in SD rats, four-week consecutive intragastric administration; details: based on nontoxic dosage, four-week ig
Method: 2. […] The tested samples are formulated into suspensions by milling with 0.5% CMC—Na; intragastric administration every day (10 ml/kg) for consecutive 4 weeks; on each day, after administration, the general conditions of the animals are observed, and weight and amount of ingestion are determined once every week. In 24 hours after the last administration, the rats are fasted overnight, blood samples are withdrawn via femoral arteries, and the rats are dissected, and the indexes of blood cytology and biochemics, gloss anatomy and histopathological examination are preformed.

SD rats [2] = assay: long-term toxicity test in SD rats, thirteen-week consecutive intragastric administration and four-week convalescence; details: based on nontoxic dosage, 13-week ig, listed as R:S=6:1 mixture
Method: 2. […] The tested samples are formulated into suspensions by milling with 0.5% CMC—Na; intragastric administration (10 ml/kg) every day for consecutive 13 weeks; on each day, after administration, the general conditions of the animals are observed, and weight and amount of ingestion are determined once every week. In 24 hours after the last administration, half of rats in each tested group are fasted overnight, blood samples are withdrawn via femoral arteries, and the rats are dissected, and the indexes of blood cytology and biochemics, gloss anatomy and histopathological examination are preformed. The administration to remaining half rats is stopped, and the convalescence is observed; general conditions are observed and weight and amount of ingestion are determined once every week. After 4 weeks, the observation is complete, and the half of rats in each tested group are fasted overnight, blood samples are withdrawn via femoral arteries, and the rats are dissected, and the indexes of blood cytology and biochemics, gloss anatomy and histopathological examination are preformed.

R-10,11-dihydro-alpha-methyl-10-oxo-dibenzo[b,f]tiazem-2-acetic acid:S-10,11-dihydro-alpha-methyl-10-oxo-dibenzo[b,f]tiazem-2-acetic acid (6:1) [S:R = 1:6]
safety compared with RS-Zaltoprofen (SD rats [1]; listed as R:S=6:1): four times or more
safety compared with RS-Zaltoprofen (SD rats [1]; listed as R:S=6:1 mixture): more than four times greater
safety compared with RS-Zaltoprofen (SD rats [2]): four times or more; also recorded: more than four times greater

Entries after “also recorded” stand apart in the source; their conditions may differ.
